In ChEMBL document CHEMBL1136294, “Aryloxazolidinediones: identification of potent orally active PPAR dual alpha/gamma agonists” (Bioorg Med Chem Lett, 2003):

Target: T1, Peroxisome proliferator-activated receptor delta (Homo sapiens, UniProt Q03181)
T1 sequence (Q03181 whole entry): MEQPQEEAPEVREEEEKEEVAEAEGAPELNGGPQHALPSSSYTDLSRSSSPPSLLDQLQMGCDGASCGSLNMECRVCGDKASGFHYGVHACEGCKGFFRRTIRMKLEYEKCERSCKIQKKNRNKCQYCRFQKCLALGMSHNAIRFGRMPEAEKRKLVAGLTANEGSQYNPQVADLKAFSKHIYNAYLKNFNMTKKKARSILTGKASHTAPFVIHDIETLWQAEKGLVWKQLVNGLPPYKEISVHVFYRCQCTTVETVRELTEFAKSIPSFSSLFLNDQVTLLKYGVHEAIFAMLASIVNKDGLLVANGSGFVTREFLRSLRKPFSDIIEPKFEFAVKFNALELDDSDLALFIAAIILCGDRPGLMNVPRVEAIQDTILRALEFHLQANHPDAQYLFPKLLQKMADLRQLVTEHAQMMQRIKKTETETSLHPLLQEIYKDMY

With CCCc1cc(Oc2ccccc2)ccc1OCCCOc1cccc(C2SC(=O)NC2=O)c1 (stereo unspecified) as the compound, how does the IC50 read?
The IC50 was greater than 50 µM.
